Laboratory results reported in paper PMC12929587 (Nature Communications, 2026).

Target: T1, bacteriophage T4 neck protein gp14 (bacteriophage T4, UniProt P11111 1-256)
T1 sequence (looked up): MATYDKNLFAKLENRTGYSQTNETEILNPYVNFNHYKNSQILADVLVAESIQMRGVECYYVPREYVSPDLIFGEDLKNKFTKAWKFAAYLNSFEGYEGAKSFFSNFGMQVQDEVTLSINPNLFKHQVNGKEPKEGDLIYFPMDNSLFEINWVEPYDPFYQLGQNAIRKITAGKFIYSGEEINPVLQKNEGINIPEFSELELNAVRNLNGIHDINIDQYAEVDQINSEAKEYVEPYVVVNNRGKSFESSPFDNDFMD
Assay: SDS-PAGE densitometry of the purified complex

B1: recombinant Hfq protein (natural protein, E. coli, UniProt P0A6X3 1-102, looked up)
chain: MAKGQSLQDPFLNALRRERVPVSIYLVNGIKLQGQIESFDQFVILLKNTVSQMVYKHAISTVVPSRPVSHHSNNAGGGTSSNYHHGSSAQNTSAQQDSEETE
stoichiometry N: ~1 gp14 per Hfq
